Assay results published in patent US20040002117A1 (CBR INSTITUTE FOR BIOMEDICAL RESEARCH INC A MASSACHUSETTS, published 2004).

B1: wild type 13-mer SPRIEITPS peptide of murine NFAT1 (peptide)
peptide: SGPSPRIEITPSH
notes: also called wild type 13-mer peptide; SPRIEIT-13
B2: wild type 26-mer SPRIEITPS peptide (peptide)
peptide: KPAGASGPSPRIEITPSHELMQAGGY
notes: also called wild type 26-mer peptide; CM2 peptide

Target: calcineurin
Experiment: competition: inhibition of 125I-calcineurin (14 nM) binding to GST-NFAT1(1-400) on glutathione-Sepharose beads, filter wash, gamma counting

Row | Binder | IC50 [µM]
1 | B1 | ~15
2 | B2 | ~15
